Source: patent US20080306162A1, “Treatment of Inflammatory Disorders and Pain” (priority 2005, published 2008)

Protein sequences, listed by entry. Tags and fused reporters are not part of them.
UniProt Q8K4Z4, whole entry: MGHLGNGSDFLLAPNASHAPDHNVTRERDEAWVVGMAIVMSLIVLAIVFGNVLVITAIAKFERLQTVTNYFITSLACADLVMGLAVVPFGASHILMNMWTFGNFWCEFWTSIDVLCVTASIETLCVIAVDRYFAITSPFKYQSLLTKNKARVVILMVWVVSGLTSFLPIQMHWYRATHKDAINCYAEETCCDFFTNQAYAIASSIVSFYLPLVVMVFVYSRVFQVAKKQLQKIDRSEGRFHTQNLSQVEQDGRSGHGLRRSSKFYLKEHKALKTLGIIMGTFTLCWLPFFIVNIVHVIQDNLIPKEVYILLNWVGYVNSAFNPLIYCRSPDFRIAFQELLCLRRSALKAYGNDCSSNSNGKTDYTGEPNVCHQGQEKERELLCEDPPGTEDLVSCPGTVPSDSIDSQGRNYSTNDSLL

Target: Beta2 (Cavia porcellus, UniProt Q8K4Z4)
Test: Beta2 agonism functional assay (inhibition of carbachol-stimulated tracheal muscle twitch)
Settings: read-out: IC50 in the beta agonism functional assay; guinea-pig trachea ring, carbachol-contracted
Procedure: Guinea-pig trachea ring preparations were suspended in Kreb's solution containing indomethacin. After 15 minutes stabilisation, the preparations were repeated contracted using carbachol and simultaneously treated with increasing cumulative doses test compounds (0.1 nM to 0.1 μM). Beta2 agonism for each test compound was determined by its dose-dependant inhibition of carbachol-stimulated tracheal muscle twitch.

- IC50: 2.2 nM
SMILES: COc1ccc(CC(C)NCC(O)c2ccc(O)c(NC=O)c2)cc1 (stereo not shown)
